Tested on: deoxyglucose (DOG) utilisation in the brain
Experiment: Muscarinic and nicotinic effects on brain glucose utilisation (deoxyglucose autoradiography)
Type: in vivo, rat
Details: 7.5 μmol/kg p.o., initial 30 minutes
Source text: Muscarinic and nicotinic effects on brain glucose utilisation
Changes in the functional activity of the CNS are associated with altered deoxyglucose (DOG) utilisation in the brain which can be visualised simultaneously in several brain regions using the autoradiographic method of Sokoloff et al., J. Neurochem. 28, 897 (1977). The administration of cholinergic drugs either direct (muscarinic agonists) or indirect (accumulation of acetylcholine) induces in this model a characteristic "fingerprint" pattern by modifying the regional glucose metabolism.
Male Wistar rats (150-200 g) are used. Drugs are administered at various doses and by different routes (i.v., p.o., i.p.) to animals. [14C]-2-deoxyglucose (125 μC/kg) is injected 45 min. before the animals are sacrificed. The brains are immediately excised, frozen at -80° C. and subsequently cut in slices with a thickness of 20 μm. The optical densities of the radiographic images are measured according to a modification of Sokoloff et al.

## CCN(C)C(=O)Oc1cccc([C@H](C)N(C)C)c1 [Compound A, (S)-N-ethyl-3-[(1-dimethylamino)ethyl]-N-methyl-phenyl-carbamate]
  effect on DOG utilisation, comparison: more potent than that of compound B
